Source: PubChem
Sampled rows, rich in hits. Any-hit rate of the full collection: about 13%.
G9a inh – blocks human histone lysine methyltransferase G9a; Q96KQ7; G9a H3K9 monomethylation, AlphaScreen, 2 h; Potency, µM (doses to about 102 µM), for inactives: top-dose activity, negative = inhibition, actives largely listed as inhibitors; 350,000 tested, 8.8% active; AID 504332; note: potency is the fitted concentration of half-maximal effect; % is set by controls: 0 for no effect and ±100 for the full control effect; nearly all actives have a fitted effect of over 75% in size
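Using a bead-based AlphaScreen, monomethylated H3K9 product from 2 h room-temperature reactions (G9a 20 nM, peptide 500 nM, SAM 20 uM) was detected with 0.5 ug/mL rabbit anti-H3K9me1 antibody.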
KDM4E inh – blocks human JMJD2E demethylase activity. AID 2147. 230,000 tested, 1.6% active. Potency, µM (highest dose often 57.1 µM), for the others: top-dose activity change, negative = inhibition, most hits filed as inhibitors. B2RXH2. JMJD2E catalytic domain, FDH-coupled NADH fluorescence (FDH is formaldehyde dehydrogenase);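 note: potency is the fitted concentration of half-maximal effect; 0% = wells with enzyme and -100% = buffer wells without enzyme; nearly all actives have a fitted effect of over 50% in size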
Lamin A splicing – modulators of lamin A splicing; HeLa LMNA splicing GFP/RFP minigene ratio, 48 h; Potency, µM (highest dose often 46.1 µM), for the others: top-dose ratio change, negative = inhibition, most hits filed as inhibitors; 200,000 tested, 0.01% active; active = well fitted inhibition curve with a large enough effect in the signal ratio, with a control signal flat, not every such curve was filed as active; inconclusive = small, poorly fitted or top-dose-only effect, or effect the other way, or a change in a side signal; the % refers to the signal ratio; note: potency is the fitted concentration of half-maximal effect; % is set by controls: 0 for no effect and ±100 for the full control effect
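S3 HeLa cells stably expressing lamin A-EGFP splicing minigene plus DsRed2, 600 cells/well, 48 h compound exposure at 37C. Laser-scanning cytometry; analysed as GFP (500-530 nm)/RFP (575-640 nm) total intensity ratio; 0.5% DMSO vehicle.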
ALDH1A1 inh – blocks purified human ALDH1A1 activity | P00352 | Purified ALDH1A1, NADH fluorescence, propionaldehyde substrate | Potency, µM (titrated, usually from 75.3 µM), without a hit: top-dose activity, negative = inhibition, actives largely listed as inhibitors | 220,000 tested, 7.3% active; active = well fitted inhibition curve with a large enough effect, not every such curve was filed as active; inconclusive = small, poorly fitted or top-dose-only effect, or another doubt; inactive = no such curve, though single readings can be large or run the other way;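 note: potency is the fitted concentration of half-maximal effect; plate controls were no enzyme wells and a reference inhibitor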
Sfp inh – blocks B. subtilis Sfp PPTase activity | hit rate 3.5% among 310,000 | Potency, µM, for inactives: max response, negative = inhibition, hits mostly inhibitors | Biochemical Sfp PPTase activity, qHTS | Q9F4F7; active = well fitted inhibition curve with a large enough effect; inconclusive = small, poorly fitted or top-dose-only effect, or another doubt; inactive = no such curve, though single readings can be large or run the other way;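 also: the enzyme is Sfp with the accession as filed and its product quenches rhodamine fluorescence; potency is read from the fitted curve at half-maximal effect; 0% = enzyme reaction without inhibitor and -100% = no enzyme wells; top concentration of the series not given in the record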
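After 15 min at room temperature with compound, 15 nM Sfp received 5 uM rhodamine-CoA plus 12.5 uM BHQ-2-ybbR (50 mM Hepes pH 7.6, 10 mM MgCl2). Rate came from the fluorescence difference over 30 min, ex 525/em 598 nm.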
miR-21 reporter – miR-21 reporter, rising signal | HeLa miR-21 FLuc reporter, luciferase, 48 h | Potency, µM (highest dose often 38.3 µM), for inactives: at the top dose reporter change, positive = more light | 340,000 tested, under 10 active | AID 2288; active = well fitted rising curve with a large enough effect; inconclusive = small, poorly fitted or top-dose-only effect; inactive = no such curve, though single readings can be large or run the other way;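 further: % of control where 0% means no effect; miR-21 action dims this reporter so a rising signal means less miR-21 action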
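HeLa cells stably expressing CMV-driven firefly luciferase with a downstream miR-21 binding sequence, endogenously expressing miR-21, were treated with titrations (up to about 40uM final) for 48 hours at 37 degree Celsius. Luciferase luminescence was read after lysis.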
Numbers without * were called inactive; ? = inconclusive; nt = not tested or not shown; [ ] = another dose, or the depositor's remark. Unless noted, calls come from the whole dose curve; as a rule, active = well fitted curve in the direction sought with a large enough effect; inconclusive = small, poorly fitted or top-dose-only effect, or another doubt; inactive = no such curve, though single readings can be large; an effect the other way counts as inactive or inconclusive.

SMILES	G9a inh	KDM4E inh	Lamin A splicing	ALDH1A1 inh	Sfp inh	miR-21 reporter
COC(=O)c1ccccc1S(=O)(=O)N1CCC(C(=O)OCC(=O)NC2CCCCC2C)CC1 (stereo not given)	20µM*	nt	nt	nt	nt	nt
COC(=O)CC[C@@H](C)C1CC[C@H]2[C@H]3CC[C@H]4C[C@@H]5CCC4(C)[C@@]3(O5)[C@@H](Br)[C@@H](Br)[C@@]12C (stereo not given in full)	nt	nt	nt	20%[13.5 µM]	nt	nt
Cc1cccc(N=Cc2cc3c(cc2[N+](=O)[O-])OCO3)c1	-5%[0.501 µM]	?	15%	?	-6%	-3%
Cc1ccc(N2NC(=O)/C(=C\c3cc4c(cc3[N+](=O)[O-])OCO4)C2=O)cc1C	25µM*	-4%	?	18µM*	-17%	-3%
COc1cc(/C=C2/C(=O)NN(c3cccc(C)c3)C2=O)cc([N+](=O)[O-])c1O	35µM*	?	?	?	12%	1%
COc1cc(/C=C2/C(=O)NN(c3cccc(C)c3)C2=O)ccc1OC(=O)c1ccco1	?	-6%	?	3.2µM*	45µM*	-2%
COc1cc(/C=C2/C(=O)NN(c3ccc(C)c(Cl)c3)C2=O)cc([N+](=O)[O-])c1O	11µM*	nt	nt	nt	4%	-2%
O=C1NN(c2ccccc2)C(=O)/C1=C\c1cccn1-c1ccc(Cl)c([N+](=O)[O-])c1	-18%	0%	10%	-14%	4%	7%
Cc1cccc(C(=O)Nc2ccccc2SCc2cc(=O)c3cccc(C)c3[nH]2)c1	7%[59 µM]	nt	?	nt	nt	4%
CCCN(CC(=O)Nc1ccccc1C)C(=O)c1ccc(N2CCCC2=O)cc1	-2%[12.7 µM]	nt	nt	nt	nt	nt
Cc1ccc(CSc2nnc([C@@H]3CCCN3C(=O)OC(C)(C)C)o2)cc1	28%	-4%	nt	nt	10%	-2%
N#Cc1ccc(/C=N/NC(=S)Nc2ccc(S(=O)(=O)N3CCOCC3)cc2)cc1	23%[12.7 µM]	-2%	nt	nt	26%	-3%
O=S(=O)(c1ccc(Cl)c(NC(=S)N/N=C/c2ccc(O)cc2)c1)N1CCOCC1	1.4µM*	?	?	10µM*	12%	-1%
CC(C)NC(=S)N/N=C/c1ccc(N2CCOCC2)cc1	15%[59 µM]	?	-17%	?	5%	-44%
O=[N+]([O-])c1cc(Cl)cc(/C=N/NC(=S)Nc2ccc(S(=O)(=O)N3CCOCC3)cc2)c1O	16µM*	25µM*	nt	nt	?	10%
Oc1ccc(/C=N/NC(=S)Nc2cccnc2)cc1O	?	16µM*	6%	?	-14%	-45%
Oc1ccc(/C=N/NC(=S)N2CCOCC2)cc1	50µM*	?	?	14µM*	-1%	-22%
O=C(NC(=S)Nc1ccc2oc(=O)ccc2c1)c1cccc(Cl)c1	?	nt	nt	nt	-7%	-1%
Cc1cccc(-c2nc3c4ccccc4n(CC(=O)Nc4cccc(F)c4)c(=O)n3n2)c1	0%[59 µM]	nt	-8%[46 µM]	nt	nt	3%
COc1ccc(OCCOc2ccc(/C=C3\C(=N)N4N=C(C)SC4=NC3=O)cc2)cc1	6%[12.7 µM]	nt	nt	nt	nt	nt

3 entries from above, ordered by the value under Sfp inh, ascending:
smiles	G9a inh	KDM4E inh	Lamin A splicing	ALDH1A1 inh	Sfp inh	miR-21 reporter
Cc1cccc(N=Cc2cc3c(cc2[N+](=O)[O-])OCO3)c1	-5%[0.501 µM]	?	15%	?	-6%	-3%
Oc1ccc(/C=N/NC(=S)N2CCOCC2)cc1	50µM*	?	?	14µM*	-1%	-22%
O=S(=O)(c1ccc(Cl)c(NC(=S)N/N=C/c2ccc(O)cc2)c1)N1CCOCC1	1.4µM*	?	?	10µM*	12%	-1%

The list continues:
SMILES	G9a inh	KDM4E inh	Lamin A splicing	ALDH1A1 inh	Sfp inh	miR-21 reporter
CCCn1c(SCC(=O)N(C)CC(=O)Nc2ccc(C)cc2)n[nH]c1=O	-2%[59 µM]	nt	nt	nt	nt	nt
O=S(=O)(c1ccc(NC(=S)N/N=C/c2ccc(O)c(O)c2)cc1)N1CCOCC1	nt	13µM*	nt	nt	-4%	-29%
COc1cccc(/C=C/C(=O)OCC(=O)Nc2nnc(-c3ccccc3)o2)c1	6%	nt	nt	nt	nt	nt
COc1ccc(CNC(=O)CSc2nnc(-c3ccc(NC(C)=O)cc3)n2C)cc1	11%[59 µM]	8%	?	?	-6%	-7%
COC(=O)/C(=N\Nc1ccc(Cl)cc1)Sc1nnc(-c2ccc(OC)cc2)n1C	3.2µM*	-5%	-18%	-16%	-9%	1%
O=c1c2sc3ccccc3c2n(Cc2cccc(F)c2)c(=O)n1Cc1ccccc1	?	nt	nt	nt	nt	0%
CCCCOC(=O)c1ccc(NC(=O)Cn2nnc3sc4c(c3c2=O)CCCC4)cc1	-4%[59 µM]	nt	nt	nt	nt	15%
CC1CCN(C(=O)COc2ccc(Nc3ccccc3)cc2)CC1	50µM*	-4%	-19%[9.22 µM]	?	12%	-6%
OCC1CCCN(C(=S)Nc2ccc(OC(F)F)cc2)C1 (stereo not given)	16%	-5%	-7%	8%	16%	-30%
O=C(Nc1ccc(OCC(=O)N2CCC(Cc3ccccc3)CC2)cc1)c1ccco1	-10%[59 µM]	-7%	-15%	10µM*	89µM*	8%
CC1CCCN(C(=O)COc2ccc(Nc3ccccc3)cc2)C1 (stereo not given)	40µM*	-5%	-27%[46 µM]	28µM*	-3%	-10%
OCC1CCCN(C(=S)Nc2ccc(Nc3ccccc3)cc2)C1 (stereo not given)	18µM*	-15%	21%[46 µM]	?	-4%	-23%
COc1cccc(CC2(CO)CCCN(Cc3ccccc3Cl)C2)c1 (stereo not given)	79µM*	nt	nt	nt	0%	-1%
COc1ccc(/C=C/CN2CCCC(CO)(Cc3cccc(Cl)c3)C2)cc1 (stereo not given)	?	-20%	nt	20µM*	0%	-3%
COc1ccc(F)c(CN2CCCC(CO)(Cc3cccc(Cl)c3)C2)c1 (stereo not given)	4%	nt	nt	nt	-2%	3%
COc1ccc(-c2cc(OC(=O)c3ccccc3)c3c(C)oc(C)c3c(=O)c2)cc1OC	14µM*	nt	nt	nt	nt	-13%
CCOc1cc(-c2ccc(OC(=O)c3ccccc3)c(OC)c2)cc(=O)c2c(C)oc(C)c12	?	nt	?	nt	nt	-14%
Cc1oc(C)c2c(=O)cc(-c3ccc4c(c3)OCO4)cc(OC(=O)c3ccccc3Cl)c12	?	nt	nt	nt	nt	1%
COc1ccc(-c2cc(OC(=O)c3cccc(Cl)c3)c3c(C)oc(C)c3c(=O)c2)cc1	14µM*	nt	nt	nt	nt	11%
Cc1oc(C)c2c(=O)cc(-c3ccc4c(c3)OCO4)cc(OC(=O)c3ccccc3Br)c12	13µM*	nt	nt	nt	nt	-11%

Copied from the list.
For Sfp inh, `COc1ccc(/C=C/CN2CCCC(CO)(Cc3cccc(Cl)c3)C2)cc1` (stereo not given) is listed with 0%
For G9a inh, `CCCn1c(SCC(=O)N(C)CC(=O)Nc2ccc(C)cc2)n[nH]c1=O` is listed with -2%[59 µM]
For miR-21 reporter, `CCCCOC(=O)c1ccc(NC(=O)Cn2nnc3sc4c(c3c2=O)CCCC4)cc1` is listed with 15%

Carrying on.
SMILES	G9a inh	KDM4E inh	Lamin A splicing	ALDH1A1 inh	Sfp inh	miR-21 reporter
COc1ccc(Cl)cc1C(=O)CSc1nnnn1C	12%	5%	-7%[46 µM]	-1%	-14%	-9%
Cc1cc(O)c(Sc2ncn[nH]2)cc1NS(=O)(=O)c1ccc(Cl)cc1	3%[12.7 µM]	nt	nt	nt	nt	nt
Cc1ccc([N+](=O)[O-])cc1S(=O)(=O)Nc1ccc(O)c(Sc2ncn[nH]2)c1	nt	nt	nt	nt	45µM*	-6%
CCOc1ccc(N2C(=O)CC(Sc3ccccc3C(=O)O)C2=O)c([N+](=O)[O-])c1 (stereo not given)	1.4µM*	-12%	-10%[46 µM]	1µM*	13µM*	-3%
O=C(O)c1ccccc1SC1CC(=O)N(c2cccc3ccccc23)C1=O (stereo not given)	nt	?	nt	nt	16µM*	7%
Cc1ccccc1C(=O)NN1C(=O)CSC1=S	-22%[59 µM]	-9%	-5%	5%	-23%	-11%
